# From IntAct's records for PubMed 22439934
# B1: Ribosomal protein S6 kinase beta-1 (Homo sapiens), P23443-2 (parent)
# chain: MAGVFDIDLDQPEDAGSEDELEEGGQLNESMDHGGVGPYELGMEHCEKFEISETSVNRGPEKIRPECFELLRVLGKGGYGKVFQVRKVTGANTGKIFAMKVLKKAMIVRNAKDTAHTKAERNILEEVKHPFIVDLIYAFQTGGKLYLILEYLSGGELFMQLEREGIFMEDTACFYLAEISMALGHLHQKGIIYRDLKPENIMLNHQGHVKLTDFGLCKESIHDGTVTHTFCGTIEYMAPEILMRSGHNRAVDWWSLGALMYDMLTGAPPFTGENRKKTIDKILKCKLNLPPYLTQEARDLLKKLLKRNAASRLGAGPGDAGEVQAHPFFRHINWEELLARKVEPPFKPLLQSEEDVSQFDSKFTRQTPVDSPDDSTLSESANQVFLGFTYVAPSVLESVKEKFSFEPKIRSPRRFIGSPRTPVSPVKFSPGDFWGRGASASTANPQTPVEYPMETSGIEQMDVTMSGEASAPLPIRQPNSGPYKKQAFPMISKRPEHLRMNL
# Variants of: B1
# Conditions: with gli1_human GLI1, P08151
row,effect of a mutation on the interaction,Variant
1,disrupting interaction,T389A
2,increasing interaction,T389E
